Drawing on PubChem BioAssay (NCI), this text covers growth for 24 compounds.

The structures appear in SMILES notation. Where “and” joins values, the source holds several entries; their conditions need not be identical. Identical values can stand only once. This is a selection; strong and weak results do not stand in their true shares. Some tests of the compounds listed are not included; inactive here does not mean inactive elsewhere.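 Single-concentration screen, 48 h exposure, 96-well plates. Endpoint: percent growth. Below 10 = active.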 Calls of active or inactive are those of the source.

The experiment concerns MDA-MB-468 breast. The experiment can be described thus: NCI-60 one-dose screen, 48 h (100 = growth as untreated, 0 = no growth, -100 = all killed). The following applies: 10 µM.
On to `ClCCN(CCCl)Cc1cc(Cl)cc(Cl)c1`, for which the growth is inactive: 81.8%.
In the case of `CN(C)CCOC(=O)C(O)(c1ccccc1)c1ccccc1` it was inactive: 118%; in that of `COc1ccc(N=C=S)cc1CN(CCCl)CCCl`, inactive: 54%.
In the case of `CCCN(CCCl)CCCl` it was inactive: 96.1%.
In the case of `ClCCCCCC(CCl)NCCCl` (centres undefined) it was inactive: 79.5%; in that of `Cc1cc2nc(CN(CCCl)CCCl)[nH]c2cc1C`, inactive: 55.2%; in that of `N#CC(C#N)=Cc1ccc(Br)cc1`, inactive: 105% and inactive: 101%.
With `O=C(OCCN1CCCC1)C(O)(c1ccccc1)c1ccccc1`, the growth was inactive: 114%.
For the compound `CC[N+](C)(C)Cc1cccc(Cc2ccccc2)c1OC(=O)N(C)C`, the growth is inactive: 109%.
To `ClCCN(CCCl)C1CCCCC1` belongs inactive: 92.4%; to `COc1ccc([N+](=O)[O-])cc1CN(CCCl)CCCl`, inactive: 101%; to `CCOc1ccc([N+](=O)[O-])cc1CN(CCCl)CCCl`, inactive: 106%.
To `CN(CCBr)CCBr` belongs inactive: 101%; to `CCNCCCl`, inactive: 115%.
To `ClCCN(CCCl)C1c2ccccc2-c2ccccc21` belongs inactive: 93%.
Regarding `CC(=O)CI`, the growth was inactive: 102%.
To `ClCCN(CCCl)Cc1ccc(Cl)c(Cl)c1` belongs inactive: 98.5%; to `COCc1c(CN(CCCl)CCCl)cnc(C)c1O`, inactive: 94.3%; to `N#CC(C#N)=Cc1cccc(Br)c1`, inactive: 107%.
`N#CC(C#N)=Cc1ccccc1Cl`: the growth is inactive: 98.5%.
In the case of `CC(C)(C)N(CCCl)CCCl` it was inactive: 92.9%; in that of `BrCCN(CCBr)Cc1ccccc1`, inactive: 110%; in that of `Fc1cccc(CN(CCCl)CCCl)c1`, inactive: 102%.
Turning to `ClCCN(CCCl)Cc1ccsc1Br`, the growth is inactive: 95.1%.
